From patent US20230398161A1 (priority 2020, published 2023)

System: 300-strain clinical isolate panel with an additional 4 strains
Assay: Host range of CK618 and antibiotics alone and in combination, 304-isolate panel
Type: cell-based, E. coli
Conditions: antibiotic at concentration printed after name plus CK618

## CC1=C(C(=O)O)N2C(=O)[C@@H](NC(=O)[C@H](N)c3ccccc3)[C@H]2SC1 [Cephalexin]
  Host range % on all strains (n = 304), Combination: Antibiotic + LBP-CK618: 85.5%
